# Legend:
# [1] = Comparison of treatment methods for removing MIB from water (Table 4, FIG. 6); conditions: feed rate 2 mg/L
# [2] = Comparison of treatment methods for removing geosmin from water (Table 4, FIG. 6); conditions: feed rate 2 mg/L
# [3] = test system: MS2 coliphage; conditions: conventional chlorine treatment, minimum CT=450 mg-min/L; cited from earlier work
substance,measurement,setting,value
Chlorine,Removal (%) MIB,[1],33%
same,Removal (%) Geosmin,[2],45%
same,contact time typically required to achieve similar levels of disinfection,[3],90 s

# Reference: patent US9227852B2, “Apparatus, systems, and methods for water treatment” (McWong Environmental Technology, priority 2008, dated 2016)
